Measurements as given in PubChem BioAssay AID2557 (NMMLSC, 2010).
Only a part is listed here, and it is no random draw. Activity calls are given as the source filed them. No stated cut-off is given here; in the data, active means inhibition above about 50%; inactive means the rest.

Amino acid sequences for entries named in this document (tags omitted).
UniProt P13612, whole entry, looked up: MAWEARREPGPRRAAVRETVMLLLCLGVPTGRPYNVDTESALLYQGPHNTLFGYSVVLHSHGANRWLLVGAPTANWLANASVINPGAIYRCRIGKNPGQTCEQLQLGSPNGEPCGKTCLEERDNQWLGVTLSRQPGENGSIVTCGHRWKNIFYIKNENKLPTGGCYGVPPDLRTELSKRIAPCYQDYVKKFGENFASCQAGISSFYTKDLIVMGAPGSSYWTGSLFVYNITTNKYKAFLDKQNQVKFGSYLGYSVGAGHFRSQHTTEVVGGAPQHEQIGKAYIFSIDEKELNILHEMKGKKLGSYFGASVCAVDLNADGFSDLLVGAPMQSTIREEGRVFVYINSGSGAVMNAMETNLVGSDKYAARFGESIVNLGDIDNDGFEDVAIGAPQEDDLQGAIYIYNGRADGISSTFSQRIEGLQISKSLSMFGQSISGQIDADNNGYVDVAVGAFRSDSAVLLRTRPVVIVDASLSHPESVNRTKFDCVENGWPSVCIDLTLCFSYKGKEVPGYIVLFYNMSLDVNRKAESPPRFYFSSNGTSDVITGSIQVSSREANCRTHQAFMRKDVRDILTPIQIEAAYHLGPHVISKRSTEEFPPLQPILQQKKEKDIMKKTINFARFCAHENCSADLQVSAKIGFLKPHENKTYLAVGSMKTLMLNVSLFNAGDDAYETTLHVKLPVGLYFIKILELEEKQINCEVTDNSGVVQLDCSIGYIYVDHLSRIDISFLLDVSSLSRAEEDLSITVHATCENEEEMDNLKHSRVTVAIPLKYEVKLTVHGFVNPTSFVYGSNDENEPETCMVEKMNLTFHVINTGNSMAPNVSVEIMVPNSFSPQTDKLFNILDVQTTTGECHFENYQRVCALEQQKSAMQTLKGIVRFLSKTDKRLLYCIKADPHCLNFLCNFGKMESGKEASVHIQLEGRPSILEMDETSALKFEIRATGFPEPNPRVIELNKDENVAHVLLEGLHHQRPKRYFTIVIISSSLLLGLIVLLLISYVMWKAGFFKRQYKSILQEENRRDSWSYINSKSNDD

target: Integrin alpha-4 (Homo sapiens) (UniProt P13612); assay: VLA-4 integrin binding inhibitors – MLPCN library, flow cytometry, VLA-4 expressing cells, VLA-4 allosteric modulator project, primary screen (AID 2557); settings: ligand binding flow cytometry, stronger effect = higher value, about 7 µM as worked out from the volumes in the protocol

Compound	inhibition
C[N+]1=C2C=CC=CC=C2SC12C([N+](=O)[O-])=CC([N+](=O)[O-])=C[C-]2[N+](=O)[O-] (centres undefined)	inactive: 5.48%
Nc1ccc([As](=O)(O)c2ccc(N)cc2)cc1	inactive: -0.84%
CCN(/C(=N/P(=O)(N1CCOCC1)N1CCOCC1)N1CCOCC1)c1ccc(OC)cc1	inactive: -4.1%
CN(C)C(=O)OCCc1n(C)cc[n+]1C	inactive: 3.91%
CC(C)=N/N=C(\N)N[N+](=O)[O-]	inactive: 28.9%
CC1CCN(C(=O)Oc2c(Cl)cc(Cl)c3cccnc23)CC1	inactive: 9.87%
COc1ccc(C2=NCC(CBr)S2)cc1 (centres undefined)	inactive: 16.6%
CC(=O)N1C2C3N(C(C)=O)C1C1N(C(C)=O)C(C(N1C(C)=O)N3C(C)=O)N2C(C)=O	inactive: 4.97%
O=[N+]([O-])c1cccc2n[nH]nc12	inactive: -9.05%
O=[N+]([O-])c1cc([N+](=O)[O-])c(CCNc2ccccc2)c([N+](=O)[O-])c1	inactive: 21.4%
CCc1nc2c(n1)c1c(non1O)c1c2no[n+]1[O-]	inactive: 0.44%
Cc1ccc(NP(=O)(Oc2ccccc2)Oc2ccccc2)nc1	inactive: 6.18%
CC(C)(C)C(=O)NC(Sc1ccncn1)C(Cl)(Cl)Cl (centres undefined)	inactive: 1.93%
O=[N+]([O-])c1ncn(CCn2ncnc2[N+](=O)[O-])n1	inactive: 9.91%
O=[N+]([O-])c1cccc(NC2=NCC(CBr)S2)c1 (centres undefined)	inactive: 5.82%
O=C(O)CNc1ccc([As](=O)(O)O)cc1	inactive: -3.54%
O=C(Nc1cc([As](=O)(O)O)ccc1O)c1ccccc1	inactive: 9.02%
O=[N+]([O-])c1cc([N+](=O)[O-])c(CCN2CCOCC2)c([N+](=O)[O-])c1	inactive: -1.01%
CCN(N=Nc1nonc1N)c1nonc1N	inactive: 10.6%
Nc1cccc2ccc([As](=O)(O)O)cc12	inactive: -4.15%
CC(=O)Nc1ccc([As](=O)(O)O)cc1	inactive: 11.4%
O=C(O)c1ccccc1[As](=O)(O)O	inactive: 8.05%

Compound	inhibition
O=P(Nc1nc2ccc(Cl)cc2s1)(c1ccccc1)c1ccccc1	inactive: 2.87%
CN(C(=O)Cc1ccc(Cl)c(Cl)c1)[C@H]1CCCC[C@@H]1N1CCCC1	inactive: 0.38%
Cc1ccc(NP(=O)(Oc2ccccc2F)Oc2ccccc2F)nc1	inactive: 1.69%
Cc1cc(SC(NC(=O)c2ccc(F)cc2)C(Cl)(Cl)Cl)ncn1 (centres undefined)	inactive: 16.1%
CCOP(=O)(Nc1ccccc1)OCC	inactive: 2.95%
Nc1cc(N)c2nonc2c1[N+](=O)[O-]	inactive: 13.4%
CC(C)CC(=O)NC(Sc1ccc(Cl)cc1)C(Cl)(Cl)Cl (centres undefined)	inactive: 12.4%
O=C(NC(Sc1ccncn1)C(Cl)(Cl)Cl)c1ccccc1 (centres undefined)	inactive: -2.52%
Cc1c2non([O-])c-2c(C)[n+](=O)[n+]1[O-]	inactive: 19.3%
Oc1ccccc1CNc1ccccn1	inactive: 4.64%
NC(=O)c1cc([N+](=O)[O-])cc([N+](=O)[O-])c1N	inactive: -1.38%
Cc1ccc(N/C(=N/P(=O)(N2CCOCC2)N2CCOCC2)N2CCOCC2)cc1	inactive: 2.56%
CN(C(=O)Cc1ccc(Cl)c(Cl)c1)[C@H]1CCCC[C@H]1N1CCCC1	inactive: -10.9%
Cc1ccc(OP(=O)(Nc2nccs2)Oc2ccc(C)cc2)cc1	inactive: -5.14%
COc1ccccc1OP(=O)(Nc1ccc(C)cn1)Oc1ccccc1OC	inactive: 10.4%
CN1CCCC(OC(=O)C(c2ccccc2)c2ccccc2)C1 (centres undefined)	inactive: 2.88%
Clc1ccc(Cl)c(NC2=NCC(CBr)S2)c1 (centres undefined)	inactive: 4.22%
CC(=O)c1ccc(N2CC2c2ccncc2)cc1 (centres undefined)	inactive: 4.72%
C[C@H]1OP(=O)(Oc2ccccc2)C[C@@H]2O[C@@H]21 (some centres undefined)	inactive: -10.1%
C[C@@H]1C=CCP(=O)(Oc2ccccc2)O1 (some centres undefined)	inactive: 11.5%
Cc1ccccc1CN(C)C(=O)COC(=O)C(O)(c1ccccc1)c1ccccc1	inactive: -13.7%
CC(=O)Nc1ccc(Oc2c([N+](=O)[O-])cc([N+](=O)[O-])cc2[N+](=O)[O-])cc1	inactive: 4.65%

Compound	inhibition
CC(=O)Nc1ccc([As](=O)(O)O)c(O)c1	inactive: -8.48%
CCOc1ccc(C2=NCC(CBr)S2)cc1 (centres undefined)	inactive: 1.53%
O=P1(Nc2nc3ccc(Cl)cc3s2)COc2ccccc2O1 (centres undefined)	inactive: 2.87%
CC(C)(C)C(=O)NC(Sc1ccccc1)C(Cl)(Cl)Cl (centres undefined)	inactive: 39%
Cc1ccc(OP(=O)(Nc2ccccn2)Oc2ccc(C)cc2)cc1	inactive: 7.79%
CC(=O)NC(SC(=S)N(CC(C)C)CC(C)C)C(Cl)(Cl)Cl (centres undefined)	inactive: 12%
COC(=O)c1cc2c(s1)N=C(c1ccccc1)N(C)P2(=O)N1CCOCC1 (centres undefined)	inactive: 10.8%
CCC(=O)N1C2C3N(C(=O)CC)C1C1N(C(=O)CC)C(C(N1C(=O)CC)N3C(=O)CC)N2C(=O)CC	inactive: 5.29%
O=C(OC1CN2CCC1CC2)c1ccccc1 (centres undefined)	inactive: -3.22%
CN(C)C(=O)Oc1noc2ccccc12	inactive: 1.05%
CC(NC(=O)COC(=O)C(O)(c1ccccc1)c1ccccc1)c1ccccc1 (centres undefined)	inactive: 7.73%
Cc1ccccc1OP(=O)(Nc1ccccn1)Oc1ccccc1C	inactive: 10.3%
O=C(NC1CCS(=O)(=O)C1)NP(=S)(Oc1ccccc1)Oc1ccccc1 (centres undefined)	inactive: -9.55%
CCNC(=S)/N=C(\N)N[N+](=O)[O-]	inactive: -5.91%
CCOC(=O)NC(Sc1ccccc1)C(Cl)(Cl)Cl (centres undefined)	inactive: 3.36%
Cc1ccc(NP(=O)(Oc2cccc(C)c2)Oc2cccc(C)c2)nc1	inactive: 10.3%
c1ccc(-c2nn[nH]n2)c(-c2nn[nH]n2)c1	inactive: 6.15%
O=[N+]([O-])c1ncn(CCn2cnc([N+](=O)[O-])n2)n1	inactive: 10.2%
CC(=O)NC(SC(=S)N(C)C)C(Cl)(Cl)Cl (centres undefined)	inactive: 5.32%
O=[N+]([O-])c1ccc(O)c(/C=N/Nc2ccc([N+](=O)[O-])cc2[N+](=O)[O-])c1	inactive: 2.83%
